TDP1 cell noCPT: qHTS for Inhibitors of human tyrosyl-DNA phosphodiesterase 1 (TDP1): qHTS in cells in absence of CPT. 420,000 compounds, 15% hits. Potency, µM (highest dose often 46.2 µM), for the others: at the top dose activity change, negative = growth inhibition, hits mostly inhibitors. DT40 Tdp1-/- hTDP1 cells, no CPT, ATP luminescence, 48 h; also: potency is read from the fitted curve at half-maximal effect; % is scaled to controls: 0 for no effect and ±100 for the full control effect; nearly all actives have a fitted effect of over 55% in size
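Growth kinetics read by CellTiter-Glo luminescence after ≥48 hr at 37 °C. Cells: DT40 Tdp1-/- stably carrying human TDP1, 400 per well, compound exposure in the absence of CPT (DMSO vehicle).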
uPA surface inh: cell surface uPA generation inhibition | cell surface uPA generation assay, qHTS | Potency, µM (highest dose often 38.3 µM), inactives show top-dose activity change, negative = inhibition, usual class: inhibitors | 330,000 compounds, 0.31% hits | AID 540303; active = well fitted inhibition curve with a large enough effect; inconclusive = small, poorly fitted or top-dose-only effect; inactive = no such curve, though single readings can be large or run the other way; tested in mouse RAW 264.7 cells; also: potency is read from the fitted curve at half-maximal effect; % is scaled to controls: 0 for no effect and ±100 for the full control effect; nearly all actives have a fitted effect of over 55% in size
TDP1 cell CPT: DT40-hTDP1 cell growth loss with CPT | chicken DT40 Tdp1-/-;hTDP1 cells + 20 nM CPT, ATP luminescence, 48 h | AID 686979 | 420,000 compounds, 12% hits | Potency, µM (top dose mostly 46.2 µM), for inactives: top-dose activity change, negative = growth inhibition, usual class: inhibitors; also: potency is read from the fitted curve at half-maximal effect; % is scaled to controls: 0 for no effect and ±100 for the full control effect; nearly all actives have a fitted effect of over 55% in size
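Chicken DT40 Tdp1-/- cells stably complemented with human TDP1 were seeded at 400 cells/well in medium containing 20 nM camptothecin, exposed to pin-transferred compounds, and grown at 37 °C for at least 48 hr. Viability was read as ATP luminescence.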
TDP1 inh: inhibitors of human tyrosyl-DNA phosphodiesterase TDP1. Q9NUW8. recombinant TDP1, AlphaScreen DNA substrate cleavage. Potency, µM (titrated, usually from 130 µM), without a hit: at the highest dose activity change, negative = inhibition, hits mostly inhibitors. 350,000 compounds, 0.28% hits. AID 485290; also: potency is read from the fitted curve at half-maximal effect; % is scaled to controls: 0 for no effect and ±100 for the full control effect; nearly all actives have a fitted effect of over 40% in size
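Here, a 5' biotin and 3' phosphotyrosine-FITC DNA oligonucleotide reports Tdp1 activity: intact substrate bridges AlphaScreen beads, while cleavage leaves a 3' phosphate and drops signal. All incubations at room temperature.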
miR-21 reporter: raises the signal of a miR-21 reporter; HeLa miR-21 FLuc reporter, luciferase, 48 h; Potency, µM (top dose mostly 38.3 µM), for inactives: at the highest dose reporter change, positive = more light; AID 2288; 340,000 tested, under 10 active; active = well fitted rising curve with a large enough effect; inconclusive = small, poorly fitted or top-dose-only effect; inactive = no such curve, though single readings can be large or run the other way;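 note: % of control where 0% means no effect; miR-21 action dims this reporter so a rising signal means less miR-21 action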
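Luminescence from a firefly luciferase reporter carrying a miR-21 binding site downstream, stably expressed under a CMV promoter in HeLa cells that make miR-21 endogenously, reports miRNA modulation after 48 h compound exposure up to approximately 40uM final.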
The depositor's hits bear a star; ? = inconclusive; nt = no result; [ ] = another dose, or the depositor's remark. An excerpt weighted towards active compounds, which were near 16% of everything screened. Unless noted, calls follow the shape of the dose curve; as a rule, active = well fitted curve in the direction sought with a large enough effect; inconclusive = small, poorly fitted or top-dose-only effect, or another doubt; inactive = no such curve, though single readings can be large; an effect the other way counts as inactive or inconclusive.

Sequence of screens – TDP1 cell noCPT, uPA surface inh, TDP1 cell CPT, TDP1 inh, miR-21 reporter
1: C1=CN2CC=Cc3cc(/C=C/c4ccnc5ccccc45)cc(c32)C1
 : 7.1µM*, nt, 10µM*, nt, nt
2: FC(F)(F)c1nc(NCc2cccnc2)c2ccccc2n1
 : 23µM*, -4%, ?, 3%, 6%
3: COc1ccc(OCC(N)=O)cc1
 : 8%, 4%, 7%, 0%, 0%
4: O=C(/C=C/c1ccccc1)N1CCN(CC(O)COc2ccccc2)CC1 (centres undefined)
 : -27%, -2%, 1%, 1%, -6%
5: COc1ccccc1[C@]1(C)ON(c2ccccc2C(F)(F)F)C1=O
 : ?, ?, 26µM*, -16%, nt
6: N#Cc1ccccc1NC(=O)c1cnc(N2CCOCC2)c2ccccc12
 : ?, nt, ?, 5%, -1%
7: COc1ccc(Cl)cc1NC(=O)c1cnc(N2CCCCC2)c2ccccc12
 : ?, nt, ?, -10%, 12%
8: O=C(NCc1ccccc1)c1cnc(N2CCCCC2)c2ccccc12
 : ?, nt, 23µM*, 1%, -36%
9: Cc1ccc(NC(=O)c2cnc(N3CCCCC3)c3ccccc23)cc1Cl
 : ?, nt, 21µM*, -10%, 1%
10: CCOC(=O)c1ccccc1NC(=O)c1cnc(N2CCOCC2)c2ccccc12
 : 16µM*, nt, ?, 3%, -3%
11: CCOc1ccc(NC(=O)c2cnc(N3CCCCC3)c3ccccc23)cc1
 : 13µM*, nt, 21µM*, -4%, 7%
12: CCc1ccccc1N(CC(=O)Nc1cccc(N(C)S(C)(=O)=O)c1)S(C)(=O)=O
 : -12%, 11%, -19%, 0%, -3%
13: O=C(CN(c1cccc(C(F)(F)F)c1)S(=O)(=O)c1ccc(Cl)c([N+](=O)[O-])c1)NCc1ccc(F)cc1
 : 16µM*, -8%, 16µM*, 0%, ?
14: Cc1ccc(S(=O)(=O)N(CC(=O)Nc2cccc(N(C)S(C)(=O)=O)c2)c2ccc(Cl)c(Cl)c2)cc1
 : 23µM*, -13%, 21µM*, 2%, 23%
15: COc1ccc(C)cc1N(CC(=O)Nc1cccc(N(C)S(C)(=O)=O)c1)S(C)(=O)=O
 : ?, -29%, 21µM*, 2%, -2%
16: O=C(CN(c1cccc([N+](=O)[O-])c1)S(=O)(=O)c1ccccc1)NCc1cccnc1
 : -15%, 2%, 8%, 9%, -4%
17: Cc1ccc(S(=O)(=O)N(CC(=O)Nc2c(C)cccc2C)c2cccc(Cl)c2)cc1
 : 15µM*, nt, ?, 6%, 11%
18: OCC[C@H]1C[C@H](O)[C@@H](O)[C@@]2(OCCCc3ccccc32)O1
 : -2%, 4%, 9%, nt, nt
19: O=C(CN(c1ccc(Cl)c(C(F)(F)F)c1)S(=O)(=O)c1ccccc1)Nc1cccnc1
 : 7.3µM*, nt, ?, 3%[12.3 µM], 13%
20: CN(c1cccc(NC(=O)CN(c2ccc(C34CC5CC(CC(C5)C3)C4)cc2)S(C)(=O)=O)c1)S(C)(=O)=O
 : 21µM*, ?, 18µM*, 6%, 30%
21: COc1cccc(NC(=O)CN(c2cccc(C(F)(F)F)c2)S(C)(=O)=O)c1
 : -21%, 5%, -14%, 4%, -2%
22: CN(c1cccc(NC(=O)CN(c2ccc(Cl)c(Cl)c2)S(=O)(=O)c2ccccc2)c1)S(C)(=O)=O
 : 21µM*, -10%, ?, 4%, ?
23: O=C(CN(c1cccc(C(F)(F)F)c1)S(=O)(=O)c1ccccc1)Nc1cccc(Cl)c1
 : 15µM*, nt, 16µM*, 9%, ?
24: COc1ccc(N(CC(=O)Nc2cccc(N(C)S(C)(=O)=O)c2)S(C)(=O)=O)cc1OC
 : -25%, 1%, -25%, -2%, -5%
25: CN(c1cccc(NC(=O)CN(c2ccc(F)cc2)S(C)(=O)=O)c1)S(C)(=O)=O
 : -1%, nt, 1%, 3%, 0%
26: O=c1c2sc3ccccc3c2n(Cc2ccccc2Cl)c(=O)n1Cc1ccccc1
 : -23%, nt, -18%, 0%, -1%
27: COC(=O)c1nn(-c2ccccc2)c(Cl)c1/C=N/OCc1ccc(C)cc1
 : ?, 8%, -14%, 3%, -1%
28: COc1ccc(C(=O)NNC(=O)CN(C)S(=O)(=O)c2ccc(Cl)cc2)c(OC)c1OC
 : -20%, 3%, -29%, nt, nt
29: COc1ccc(S(=O)(=O)Nc2cccc(C(C)=O)c2)cc1Br
 : ?, -4%, -17%, 3%, 4%
30: COc1ccc(S(=O)(=O)Nc2cccc(N(C)S(C)(=O)=O)c2)cc1Br
 : 21µM*, ?, ?, 5%, 1%

Codes – A = TDP1 cell noCPT; B = uPA surface inh; C = TDP1 cell CPT; D = TDP1 inh; E = miR-21 reporter
31) Cc1ccsc1/C=C1/SC(N2CC(C)OC(C)C2)=NC1=O (centres undefined)
  A: 21µM*; B: -11%; C: ?; D: 6%; E: -14%

32) COc1ccc(-c2nc(CSCC(=O)N3CCN(C(=O)c4ccco4)CC3)c(C)o2)cc1OC
  A: -17%; B: -8%; C: ?; D: 4%; E: -6%

33) Cc1cc(O)ccc1N=Cc1c(C(F)(F)F)[nH][nH]c1=O
  A: 10µM*; B: ?; C: 23µM*; D: 2%; E: 4%

34) O=c1[nH][nH]c(C(F)(F)F)c1C=Nc1ccccc1
  A: -10%; B: 2%; C: 1%; D: 0%; E: 1%

35) CC(C)C1CC(c2ccccc2)(C(CN)CO)CCO1 (centres undefined)
  A: ?; B: -3%; C: -23%; D: nt; E: 3%

36) O=C(NNS(=O)(=O)c1ccccc1)c1cccc(F)c1
  A: -20%; B: 11%; C: 4%; D: nt; E: -3%

37) CC1C(=O)N(Cc2cn(CC3CCCCC3)nn2)CCS(=O)(=O)N1Cc1ccc(-c2ccc(Cl)c(Cl)c2)cc1 (centres undefined)
  A: 9.2µM*; B: nt; C: 10µM*; D: nt; E: nt

38) CC1C(=O)N(Cc2cn(CC3CCCCC3)nn2)CCS(=O)(=O)N1Cc1ccc(-c2ccc(Cl)cc2)cc1 (centres undefined)
  A: 8.2µM*; B: nt; C: 16µM*; D: nt; E: nt

39) Cn1nc(-c2ccc(C(=O)Nc3cccc(Cl)c3)cc2)c2ccccc2c1=O
  A: ?; B: nt; C: ?; D: -1%; E: -5%

40) Cc1cccc(C)c1NC(=O)C1(C)CCC(=O)N1CCOc1ccccc1 (centres undefined)
  A: -1%; B: nt; C: -11%; D: nt; E: nt

5 compounds out of the list, sorted by heavy-atom count, rising:
Codes – A = TDP1 cell noCPT; B = uPA surface inh; C = TDP1 cell CPT; D = TDP1 inh; E = miR-21 reporter
34) O=c1[nH][nH]c(C(F)(F)F)c1C=Nc1ccccc1
  A: -10%; B: 2%; C: 1%; D: 0%; E: 1%

36) O=C(NNS(=O)(=O)c1ccccc1)c1cccc(F)c1
  A: -20%; B: 11%; C: 4%; D: nt; E: -3%

39) Cn1nc(-c2ccc(C(=O)Nc3cccc(Cl)c3)cc2)c2ccccc2c1=O
  A: ?; B: nt; C: ?; D: -1%; E: -5%

32) COc1ccc(-c2nc(CSCC(=O)N3CCN(C(=O)c4ccco4)CC3)c(C)o2)cc1OC
  A: -17%; B: -8%; C: ?; D: 4%; E: -6%

38) CC1C(=O)N(Cc2cn(CC3CCCCC3)nn2)CCS(=O)(=O)N1Cc1ccc(-c2ccc(Cl)cc2)cc1 (centres undefined)
  A: 8.2µM*; B: nt; C: 16µM*; D: nt; E: nt

Other structures
Codes – A = TDP1 cell noCPT; B = uPA surface inh; C = TDP1 cell CPT; D = TDP1 inh; E = miR-21 reporter
41) CC1(C(=O)NS(=O)(=O)c2cccs2)CCN1C(=O)c1ccco1 (centres undefined)
  A: 3%; B: nt; C: 8%; D: nt; E: nt

42) CC(=O)c1ccc(N2CCN(C(=O)c3cn(Cc4ccccc4)nc3-c3cccnc3)CC2)c(F)c1
  A: 23µM*; B: 8%; C: ?; D: 4%; E: nt

43) O=C(c1cc(-c2ccncc2)nc2ccccc12)N1CCN(c2ccccn2)CC1
  A: 11µM*; B: nt; C: 8.9µM*; D: 6%; E: 19%

44) O=C(c1ccccc1-c1ccccc1)N1CCN(c2ccccn2)CC1
  A: 2.6µM*; B: -8%; C: 3.3µM*; D: 5%; E: 12%

45) O=C(c1cc(-c2ccccc2)nc2ccccc12)N1CCN(c2ccccc2O)CC1
  A: 18µM*; B: -5%; C: 16µM*; D: 6%; E: 7%

46) O=C(c1cc(-c2ccncc2)nc2ccccc12)N1CCN(c2ccccc2O)CC1
  A: ?; B: 6%; C: ?; D: 5%; E: 3%
